Literature values in patent US6699477B2, “EBV CTL epitopes” (The Council of the Queensland Institute of Medical Research, priority 1996, dated 2004).

Test system: HLA
Settings: Table 4; cited from earlier work

## RKCCRAKFKQLLQHYR
  HLA Rest.: HLA Cw6
